Ab-95 light chain CDR variants: yeast mating affinities

Source: Engelhart et al. 2022 (doi:10.1038/s41597-022-01779-4), MIT Lincoln Laboratory and A-Alpha Bio; data file from the FLAb repository.

Antigen: PDVDLGDISGINAS, a 14-residue peptide of the SARS-CoV-2 spike HR2 region.

Ab-95 is the parent antibody, in scFv form: VH, then a 15-residue (Gly4Ser)3 linker, then VL. The heavy chain is unchanged in all variants.
VH: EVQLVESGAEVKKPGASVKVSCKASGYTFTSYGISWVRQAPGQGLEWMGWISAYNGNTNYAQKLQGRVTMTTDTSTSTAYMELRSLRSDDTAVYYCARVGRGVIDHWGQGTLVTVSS
VL: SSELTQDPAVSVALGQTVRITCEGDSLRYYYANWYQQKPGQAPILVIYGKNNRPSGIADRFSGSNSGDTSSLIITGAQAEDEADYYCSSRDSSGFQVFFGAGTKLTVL

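Phage display of a naive human antibody library on the peptide gave the parent. In library AAYL52, one, two or three CDR residues were substituted; doubles and triples were drawn at random. In AlphaSeq, yeast of one mating type display the scFv and yeast of the other type display the target. After mating in shaken culture at 30 °C for 16 h, diploids were selected and their barcode pairs sequenced. Scores were corrected for input abundance and mapped to Kd with protein pairs of known affinity run in the same pool. There are three technical replicates.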

Variants are written as CDR1, CDR2 and CDR3 of the light chain (limits as in the source). Parent: EGDSLRYYYAN, GKNNRPS, SSRDSSGFQVF.
This list gathers variants with a substitution at V97 (VL, numbered from residue 1).
The read-out is the apparent dissociation constant on a log10 scale (nM): the lower, the stronger.
Replicates are averaged; those with no signal do not enter the mean.
"nd" means that the variant was in the library but no mating with the target was seen in that replicate; the authors take this as a sign of poor binding, and no number exists.
For reference, the parent read 2.31 as the reference entry and 2.25 as a member of this library.
As a blank, each scFv also met three strains without target: over library AAYL52, 28% of these pairings were detected, typically at 3.91 and seldom below 2.90.

Variant EGDSLRYYYAN | GKANRPS | SARDSSGFQKF showed nd, nd, nd. Variant EGDSLRYYYAN | GKNNRPS | SSRRDSGFQDF showed nd, nd, nd. Variant EGHSLRYYYAN | GKNRRPS | SSRDSSGFQGF gave 5.36, nd, 3.79 (mean 4.58). Variant EGDSLRYYYAN | GKNNRPS | SSRLSSGFMFF showed 2.74, 2.17, 1.88 (mean 2.26). With EGDSLRYCYAN | GKNNRPS | ASRDSSGFQKF the result was 4.76, 2.72, 4.03 (mean 3.84). Variant EGPSLRYYYAN | EKNNRPS | SSRDSSGFQPF gave 3.83, 3.26, 3.91 (mean 3.66). Variant EGDSLRYYYAN | GKNNRPS | SSTDSSGFQLF showed 2.86, nd, 3.76 (mean 3.31).

With EGDSLRYYYAN | GKNNRRS | SSRLSSGFQDF the result was 3.26, nd, nd. For EGDVLRYYYAN | GKINRPS | SSRDSSGFQMF, the assay gave 4.37, nd, nd. Variant EGDSLRYYYAN | GKNNRPV | SSRDSWGFQTF gave nd, nd, nd. For EGDSLRYYYAN | GKNNEPS | SSRDSSGFQCF, the assay gave nd, 3.73, nd. For EGDSLRYYNAN | GKNNRPS | SSRDSSGFQIF, the assay gave 1.51, 1.62, 1.22 (mean 1.45). Variant EGDSLRPYYAN | GKNNRPS | SSRDSSGFQGF showed 2.75, 2.38, 2.26 (mean 2.47). Variant EGDSNRYYYAN | GKNNRPS | SSRDSSGFQWF showed 3.02, 3.29, 3.53 (mean 3.28).

For EGDSLRYYYQN | GKNNRPS | SSQDSSGFQGF, the assay gave 4.40, 4.05, nd (mean 4.23). For EGQDLRYYYAN | GKNNRPS | SSRDSSGFQFF, the assay gave 2.86, 2.78, 3.46 (mean 3.03). Variant EGDSLRYYYAN | GPNNRPS | SSRDLSGFQHF showed nd, 3.41, 3.81 (mean 3.61). With EGDSFRKYYAN | GKNNRPS | SSRDSSGFQFF the result was nd, nd, 4.22. Variant EGDSARYYYAN | GKNNRPS | SSRDSSGFCMF gave 4.30, nd, 4.44 (mean 4.37). With EGDSLRYYYAN | EKNNRPS | SSRDSSCFQEF the result was nd, 2.41, nd. Variant EGDSLRYYYAN | GKNNMPS | SSRDSSGRQPF gave 5.20, nd, nd.

Variant EGDSLRYYYAN | TKSNRPS | SSRDSSGFQGF gave nd, 3.82, nd. Variant EGDSLRYYYWN | GKNNRPS | SSRDSSGIQQF gave nd, nd, nd. Variant EGDSLRYYYAN | GKNQFPS | SSRDSSGFQDF showed nd, nd, nd. Variant EGDSLRYYYAN | GKNNRPA | VSRDSSGFQNF gave 2.67, 2.47, 2.44 (mean 2.52). With EGLSLRYYYAN | GKNNRPS | SSRDSSGNQHF the result was 4.30, 3.05, nd (mean 3.68). Variant EGDSLRYYYAN | GMNDRPS | SSRDSSGFQSF gave 2.48, 3.43, 3.32 (mean 3.08). For EGDLLPYYYAN | GKNNRPS | SSRDSSGFQSF, the assay gave nd, 4.05, nd.

For EGDSKRYYYAN | GKNNRPS | SMRDSSGFQSF, the assay gave 4.31, nd, nd. Variant EGFSLRYYYAN | GKNNRPS | SSRDSSGFQGF showed 2.46, 2.48, 2.60 (mean 2.51). Variant EGDSLRYYKAN | GKNNRAS | SSRDSSGFQQF gave 2.82, 2.67, 2.75 (mean 2.75). Variant EGDSLRYYYAS | GKNNRPM | SSRDSSGFQYF showed 3.35, 2.31, nd (mean 2.83). Variant EGDSLRYYYIN | GKNNRPS | SSRDSSGQQWF gave nd, nd, 3.65. For EGDSLRYYYAN | GPGNRPS | SSRDSSGFQDF, the assay gave 2.50, 2.51, 2.07 (mean 2.36).

Repeated from above, the 5 best binders with a signal in all replicates:

CDR-L1,CDR-L2,CDR-L3,log10 Kd (nM) by replicate,mean log10 Kd (nM)
EGDSLRYYNAN,GKNNRPS,SSRDSSGFQIF,"1.51, 1.62, 1.22",1.45
EGDSLRYYYAN,GKNNRPS,SSRLSSGFMFF,"2.74, 2.17, 1.88",2.26
EGDSLRYYYAN,GPGNRPS,SSRDSSGFQDF,"2.50, 2.51, 2.07",2.36
EGDSLRPYYAN,GKNNRPS,SSRDSSGFQGF,"2.75, 2.38, 2.26",2.47
EGFSLRYYYAN,GKNNRPS,SSRDSSGFQGF,"2.46, 2.48, 2.60",2.51